Article PMC3388080 (PLoS ONE, 2012)

By UniProt entry, the sequences of proteins in these tests, tags left out.
UniProt P56719, whole entry: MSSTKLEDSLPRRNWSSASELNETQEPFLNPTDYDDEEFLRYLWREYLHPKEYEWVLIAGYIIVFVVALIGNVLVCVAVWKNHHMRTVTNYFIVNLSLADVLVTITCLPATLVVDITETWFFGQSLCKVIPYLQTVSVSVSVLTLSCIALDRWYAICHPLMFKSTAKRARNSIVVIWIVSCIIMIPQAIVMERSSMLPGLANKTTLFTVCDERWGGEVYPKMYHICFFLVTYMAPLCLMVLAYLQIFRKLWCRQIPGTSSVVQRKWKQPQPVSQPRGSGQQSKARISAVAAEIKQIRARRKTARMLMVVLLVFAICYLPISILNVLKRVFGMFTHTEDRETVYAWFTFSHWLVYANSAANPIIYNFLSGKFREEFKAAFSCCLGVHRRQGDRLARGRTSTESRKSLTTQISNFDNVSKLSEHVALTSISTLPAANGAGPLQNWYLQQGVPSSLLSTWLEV
UniProt P56718, whole entry: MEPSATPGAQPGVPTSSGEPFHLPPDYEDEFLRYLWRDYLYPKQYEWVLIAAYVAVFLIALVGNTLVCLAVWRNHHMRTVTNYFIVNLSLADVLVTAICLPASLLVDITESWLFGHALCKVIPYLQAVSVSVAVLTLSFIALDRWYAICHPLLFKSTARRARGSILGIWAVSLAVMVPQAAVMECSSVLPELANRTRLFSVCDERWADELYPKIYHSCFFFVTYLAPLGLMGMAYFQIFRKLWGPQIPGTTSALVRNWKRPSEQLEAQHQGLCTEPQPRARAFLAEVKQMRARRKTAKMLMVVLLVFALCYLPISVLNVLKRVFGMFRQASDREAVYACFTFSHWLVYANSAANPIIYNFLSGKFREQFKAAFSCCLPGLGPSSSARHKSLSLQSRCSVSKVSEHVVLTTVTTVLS

Tests used:
rHCRTR2 [1] = target: T1, rHCRTR2 (Rattus norvegicus, UniProt P56719); assay: Association and dissociation kinetics of [^3H]almorexant in rHCRTR2-HEK293 cell membranes; type: binding; conditions: tested as the radiolabelled form
rHCRTR2 [2] = target: T1, rHCRTR2; assay: [^3H]almorexant saturation binding, HEK293-rHCRTR2 membranes; conditions: 37°C, tested as the radiolabelled form
rHCRTR1 = rHCRTR1 (Rattus norvegicus, UniProt P56718); assay: [^3H]almorexant saturation binding, HEK293-rHCRTR1 membranes; conditions: 23°C, tested as the radiolabelled form

Which results are given for CNC(=O)[C@@H](c1ccccc1)N1CCc2cc(OC)c(OC)cc2[C@@H]1CCc1ccc(C(F)(F)F)cc1 [almorexant, (2R)-2-[(1S)-6,7-Dimethoxy-1-[2-(4-trifluoromethyl-phenyl)-ethyl]-3,4-dihydro-1H-isoquinolin-2-yl]-N-methyl-2-phenyl-acetamide]?
Association kinetic Kon (rHCRTR2 [1]; 37°C, calculated on rate): 1.22e+06 ± 250000 M⁻¹ s⁻¹; Dissociation kinetic Koff (rHCRTR2 [1]; 37°C, observed off rate, excess almorexant 5 µM): 0.00035 ± 6.7e-05 s⁻¹; half-maximal binding (association) (rHCRTR2 [1]; 37°C): 10 min; time to reach binding equilibrium (rHCRTR2 [1]; 37°C): ≤ 50 min; Kd (rHCRTR2 [1]; read-out: Apparent Kd, 37°C, apparent dissociation constant from kinetics): 0.33 nM; rate of dissociation (in words) (rHCRTR2 [1]; reversal incomplete, baseline not reached even after 2 h): slow; Bmax (rHCRTR2 [2]): 53.0±1.4 pmol/mg prot; Kd (rHCRTR2 [2]): 0.5 nM; Bmax (rHCRTR1): 27.2±0.7 pmol/mg prot; Kd (rHCRTR1): 3.4 nM
